# Experimental data taken from PubChem BioAssay AID1706 (The Scripps Research Institute Molecular Screening Center, 2009).
# Only a part is listed here, and it is no random draw. Some tests of the compounds listed are not included; inactive here does not mean inactive elsewhere. Active and inactive are the calls of the source. No stated cut-off is given here; in the data, active means inhibition above about 12%; inactive means the rest.
# Biological target: Replicase polyprotein 1ab (Severe acute respiratory syndrome coronavirus) (UniProt P0C6X7)
# Assay: blockers of SARS 3CLpro peptide cleavage – biochemical, quenched FRET, primary screen (AID 1706)
# Conditions: recombinant SARS-CoV 3CLpro, at 6 µM, active compounds read high
row,SMILES,inhibition
1,O=C(OC1CN2CCC1CC2)C(CO)(c1ccccc1)c1ccccc1 (centres undefined),inactive: -2.42%
2,COc1ccc(Br)c(C(=O)NCC2(N3CCCCC3)CCCCC2)c1,inactive: 5.1%
3,CC(C)Oc1ccc(C(=O)NCC2(N(C)C)CCCCC2)cc1,inactive: 3.58%
4,CN(C)c1cccc(C(=O)NCC2(N(C)C)CCCCC2)c1,inactive: 4.6%
5,CN(C)C1(CNC(=O)c2ccc(Br)cc2)CCCCC1,inactive: -1.82%
6,COc1cc(C(=O)NCC2(N(C)C)CCCCC2)c([N+](=O)[O-])cc1OC,inactive: 4.3%
7,COc1cccc(C(=O)NCC2(N3CCCCC3)CCCCC2)c1,inactive: 2.17%
8,COc1ccc(Cl)cc1C(=O)NCC1(N(C)C)CCCCC1,inactive: 1.66%
9,O=C(NCC1(N2CCCCC2)CCCCC1)c1cccc(Cl)c1,inactive: 2.35%
10,Cc1ccccc1C(=O)NCC1(N2CCCCC2)CCCCC1,inactive: -2.44%
11,CN(C)c1ccc(C(=O)NCC2(N(C)C)CCCCC2)cc1,inactive: 2.59%
12,CN(C)C1CCCC1OC(=O)C(O)(c1ccccc1)c1ccccc1 (centres undefined),inactive: -1.33%
13,C=CCN1CCN(CCOC(=O)C(O)(c2ccccc2)c2ccccc2)CC1,inactive: 2.02%
14,O=C(NCC1(N2CCCCC2)CCCCC1)c1cc(F)c(F)cc1Cl,inactive: 3.71%
15,COc1ccc(C(=O)NCC2(N(C)C)CCCCC2)cc1,inactive: 1.38%
16,CCN1CCCC(OC(=O)C2(O)c3ccccc3C=Cc3ccccc32)C1 (centres undefined),inactive: -2.52%
17,Cc1cc(C(=O)NCC2(N3CCCCC3)CCCCC2)ccc1[N+](=O)[O-],inactive: -0.96%
18,O=C(NCC1(N2CCCCC2)CCCCC1)c1cccc(Br)c1,inactive: 1.34%
19,O=C(NCC1(N2CCCCC2)CCCCC1)c1cc([N+](=O)[O-])ccc1Cl,inactive: 4.47%
20,CN1[C@@H]2CC[C@H]1CC(OC(=O)C(O)(c1ccccc1)c1ccccc1)C2 (some centres undefined),inactive: -1.93%
21,CCN(CC)CC(C)C(C)OC(=O)C(O)(c1ccccc1)c1ccccc1 (centres undefined),inactive: 1.89%
22,COc1cc(SC)ccc1C(=O)NCC1(N(C)C)CCCCC1,inactive: 2.17%
23,CC(C)N1C(=O)CC2(CCN(CCOC(=O)C(O)(c3ccccc3)c3ccccc3)CC2)C1=O,inactive: 4.51%
24,Cc1ccc(C(=O)NCC2(N3CCCCC3)CCCCC2)cc1,inactive: -2.14%
